# Measured values reported in ChEMBL document CHEMBL3232937.
# By UniProt entry, the sequences of proteins in these tests, tags left out. Where a name states a change or a piece, a line headed by the entry shows the natural chain unless it says otherwise.
# UniProt P48730: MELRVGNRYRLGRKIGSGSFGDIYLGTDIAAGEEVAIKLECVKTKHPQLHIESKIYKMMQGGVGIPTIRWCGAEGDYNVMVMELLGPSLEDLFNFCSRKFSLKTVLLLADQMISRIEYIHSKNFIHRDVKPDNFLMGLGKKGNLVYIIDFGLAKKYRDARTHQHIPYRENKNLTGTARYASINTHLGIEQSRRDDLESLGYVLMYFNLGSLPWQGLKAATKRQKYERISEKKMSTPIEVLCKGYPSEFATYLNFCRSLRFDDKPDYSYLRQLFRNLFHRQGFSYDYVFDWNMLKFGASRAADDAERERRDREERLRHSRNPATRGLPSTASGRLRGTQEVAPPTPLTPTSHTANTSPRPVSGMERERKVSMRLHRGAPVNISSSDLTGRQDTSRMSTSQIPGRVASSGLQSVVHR
# Target: Casein kinase I isoform delta (Homo sapiens, UniProt P48730)
# Settings: at 10 µM
# 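Also: recombinant enzyme with casein substrate, activity read by Kinase-Glo luminescence after 60 min, inhibition expressed relative to untreated control.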
row,Compound,inhibition [%]
1,COc1ccccc1C(=O)Nc1nc2ccc(C(F)(F)F)cc2s1,25
2,Cn1c(NC(=O)Cc2ccc(Cl)cc2)nc2ccccc21,31
3,Cn1c(NC(=O)Cc2cccc(Cl)c2)nc2ccccc21,27
4,O=C(Cc1cccc(Cl)c1)Nc1nc2c(Cl)cccc2s1,20
5,Cc1cccc2sc(NC(=O)Cc3cccc(Cl)c3)nc12,20

# Results, then the molecule that gave them:
row,inhibition [%],Compound
1,20,O=C(Cc1ccc(Cl)cc1)Oc1nc2ccccc2s1
2,20,O=C(Cc1cccc(Cl)c1)Nc1ncccn1
3,24,COc1ccccc1CC(=O)Nc1nc2ccccc2o1
4,25,COc1ccccc1CCNc1nc2ccc(C(F)(F)F)cc2s1
